Data from PubChem BioAssay (NCI).
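The compound was tested at five concentrations on cells cultured in 96-well plates, with a 48-hour exposure period. At the GI50, growth is halved. TGI: total growth inhibition.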

How the values were obtained:
Assay in all cases: NCI anticancer screen, dose series, 48 h
786-0 renal = system: 786-0 renal
A549 NSCLC = system: A549 NSCLC
ACHN renal = system: ACHN renal
CAKI-1 renal = system: CAKI-1 renal
CCRF-CEM leukemia = system: CCRF-CEM leukemia
COLO 205 colon = system: COLO 205 colon
DLD-1 colon = system: DLD-1 colon
DMS 114 small cell lung = system: DMS 114 small cell lung
DMS 273 small cell lung = system: DMS 273 small cell lung
EKVX NSCLC = system: EKVX NSCLC
HCC-2998 colon = system: HCC-2998 colon
HCT-116 colon = system: HCT-116 colon
HCT-15 colon = system: HCT-15 colon
HL-60(TB) leukemia = system: HL-60(TB) leukemia
HOP-18 NSCLC = system: HOP-18 NSCLC
HOP-92 NSCLC = system: HOP-92 NSCLC
HT29 colon = system: HT29 colon
IGROV1 ovarian = system: IGROV1 ovarian
K-562 leukemia = system: K-562 leukemia
KM12 colon = system: KM12 colon
KM20L2 colon = system: KM20L2 colon
LOX IMVI melanoma = system: LOX IMVI melanoma
LXFL 529 NSCLC = system: LXFL 529 NSCLC
M14 melanoma = system: M14 melanoma
M19-MEL melanoma = system: M19-MEL melanoma
MALME-3M melanoma = system: MALME-3M melanoma
MOLT-4 leukemia = system: MOLT-4 leukemia
NCI-H226 lung = system: NCI-H226 lung
NCI-H23 lung = system: NCI-H23 lung
NCI-H322M lung = system: NCI-H322M lung
NCI-H460 lung = system: NCI-H460 lung
NCI-H522 lung = system: NCI-H522 lung
OVCAR-3 ovarian = system: OVCAR-3 ovarian
OVCAR-4 ovarian = system: OVCAR-4 ovarian
OVCAR-5 ovarian = system: OVCAR-5 ovarian
OVCAR-8 ovarian = system: OVCAR-8 ovarian
RPMI-8226 leukemia = system: RPMI-8226 leukemia
RXF 393 renal = system: RXF 393 renal
SF-268 CNS = system: SF-268 CNS
SF-295 CNS = system: SF-295 CNS
SF-539 CNS = system: SF-539 CNS
SK-MEL-2 melanoma = system: SK-MEL-2 melanoma
SK-MEL-28 melanoma = system: SK-MEL-28 melanoma
SK-MEL-5 melanoma = system: SK-MEL-5 melanoma
SK-OV-3 ovarian = system: SK-OV-3 ovarian
SN12C renal = system: SN12C renal
SNB-19 CNS = system: SNB-19 CNS
SNB-75 CNS = system: SNB-75 CNS
SNB-78 CNS = system: SNB-78 CNS
SR leukemia = system: SR leukemia
SW-620 colon = system: SW-620 colon
TK-10 renal = system: TK-10 renal
U251 CNS = system: U251 CNS
UACC-257 melanoma = system: UACC-257 melanoma
UACC-62 melanoma = system: UACC-62 melanoma
UO-31 renal = system: UO-31 renal
XF 498 CNS = system: XF 498 CNS

CCCCCCP(=O)(OC)OC
GI50 (786-0 renal): > 100 µM
TGI (786-0 renal): > 100 µM
GI50 (A549 NSCLC): > 100 µM
TGI (A549 NSCLC): > 100 µM
GI50 (ACHN renal): > 100 µM
TGI (ACHN renal): > 100 µM
GI50 (CAKI-1 renal): > 100 µM
TGI (CAKI-1 renal): > 100 µM
GI50 (CCRF-CEM leukemia): > 100 µM
TGI (CCRF-CEM leukemia): > 100 µM
GI50 (COLO 205 colon): > 100 µM
TGI (COLO 205 colon): > 100 µM
GI50 (DLD-1 colon): > 100 µM
TGI (DLD-1 colon): > 100 µM
GI50 (DMS 114 small cell lung): > 100 µM
TGI (DMS 114 small cell lung): > 100 µM
GI50 (DMS 273 small cell lung): > 100 µM
TGI (DMS 273 small cell lung): > 100 µM
GI50 (EKVX NSCLC): > 100 µM
TGI (EKVX NSCLC): > 100 µM
GI50 (HCC-2998 colon): > 100 µM
TGI (HCC-2998 colon): > 100 µM
GI50 (HCT-116 colon): > 100 µM
TGI (HCT-116 colon): > 100 µM
GI50 (HCT-15 colon): > 100 µM
TGI (HCT-15 colon): > 100 µM
GI50 (HL-60(TB) leukemia): > 100 µM
TGI (HL-60(TB) leukemia): > 100 µM
GI50 (HOP-18 NSCLC): > 100 µM
TGI (HOP-18 NSCLC): > 100 µM
GI50 (HOP-92 NSCLC): > 100 µM
TGI (HOP-92 NSCLC): > 100 µM
GI50 (HT29 colon): > 100 µM
TGI (HT29 colon): > 100 µM
GI50 (IGROV1 ovarian): > 100 µM
TGI (IGROV1 ovarian): > 100 µM
GI50 (K-562 leukemia): > 100 µM
TGI (K-562 leukemia): > 100 µM
GI50 (KM12 colon): > 100 µM
TGI (KM12 colon): > 100 µM
GI50 (KM20L2 colon): > 100 µM
TGI (KM20L2 colon): > 100 µM
GI50 (LOX IMVI melanoma): > 100 µM
TGI (LOX IMVI melanoma): > 100 µM
GI50 (LXFL 529 NSCLC): > 100 µM
TGI (LXFL 529 NSCLC): > 100 µM
GI50 (M14 melanoma): > 100 µM
TGI (M14 melanoma): > 100 µM
GI50 (M19-MEL melanoma): > 100 µM
TGI (M19-MEL melanoma): > 100 µM
GI50 (MALME-3M melanoma): > 100 µM
TGI (MALME-3M melanoma): > 100 µM
GI50 (MOLT-4 leukemia): > 100 µM
TGI (MOLT-4 leukemia): > 100 µM
GI50 (NCI-H226 lung): > 100 µM
TGI (NCI-H226 lung): > 100 µM
GI50 (NCI-H23 lung): > 100 µM
TGI (NCI-H23 lung): > 100 µM
GI50 (NCI-H322M lung): > 100 µM
TGI (NCI-H322M lung): > 100 µM
GI50 (NCI-H460 lung): > 100 µM
TGI (NCI-H460 lung): > 100 µM
GI50 (NCI-H522 lung): > 100 µM
TGI (NCI-H522 lung): > 100 µM
GI50 (OVCAR-3 ovarian): > 100 µM
TGI (OVCAR-3 ovarian): > 100 µM
GI50 (OVCAR-4 ovarian): > 100 µM
TGI (OVCAR-4 ovarian): > 100 µM
GI50 (OVCAR-5 ovarian): > 100 µM
TGI (OVCAR-5 ovarian): > 100 µM
GI50 (OVCAR-8 ovarian): > 100 µM
TGI (OVCAR-8 ovarian): > 100 µM
GI50 (RPMI-8226 leukemia): > 100 µM
TGI (RPMI-8226 leukemia): > 100 µM
GI50 (RXF 393 renal): > 100 µM
TGI (RXF 393 renal): > 100 µM
GI50 (SF-268 CNS): > 100 µM
TGI (SF-268 CNS): > 100 µM
GI50 (SF-295 CNS): > 100 µM
TGI (SF-295 CNS): > 100 µM
GI50 (SF-539 CNS): > 100 µM
TGI (SF-539 CNS): > 100 µM
GI50 (SK-MEL-2 melanoma): > 100 µM
TGI (SK-MEL-2 melanoma): > 100 µM
GI50 (SK-MEL-28 melanoma): > 100 µM
TGI (SK-MEL-28 melanoma): > 100 µM
GI50 (SK-MEL-5 melanoma): > 100 µM
TGI (SK-MEL-5 melanoma): > 100 µM
GI50 (SK-OV-3 ovarian): > 100 µM
TGI (SK-OV-3 ovarian): > 100 µM
GI50 (SN12C renal): > 100 µM
TGI (SN12C renal): > 100 µM
GI50 (SNB-19 CNS): > 100 µM
TGI (SNB-19 CNS): > 100 µM
GI50 (SNB-75 CNS): > 100 µM
TGI (SNB-75 CNS): > 100 µM
GI50 (SNB-78 CNS): > 100 µM
TGI (SNB-78 CNS): > 100 µM
GI50 (SR leukemia): > 100 µM
TGI (SR leukemia): > 100 µM
GI50 (SW-620 colon): 79.5 µM
TGI (SW-620 colon): > 100 µM
GI50 (TK-10 renal): > 100 µM
TGI (TK-10 renal): > 100 µM
GI50 (U251 CNS): > 100 µM
TGI (U251 CNS): > 100 µM
GI50 (UACC-257 melanoma): > 100 µM
TGI (UACC-257 melanoma): > 100 µM
GI50 (UACC-62 melanoma): > 100 µM
TGI (UACC-62 melanoma): > 100 µM
GI50 (UO-31 renal): > 100 µM
TGI (UO-31 renal): > 100 µM
GI50 (XF 498 CNS): > 100 µM
TGI (XF 498 CNS): > 100 µM
